Experimental data from patent US8697888B2, “Substituted (1-(methylsulfonyl)azetidin-3-yl)(heterocycloalkyl)methanone analogs as antagonists of muscarinic acetylcholine M1 receptors” (Vanderbilt University, priority 2012, dated 2014).

target: mAChR M1 (UniProt P11229); test: mAChR M1 cell-based functional assay (calcium mobilization, antagonist mode); details: concentration of antagonist decreasing calcium flux by 50%; EC80 acetylcholine response; CHO-K1 cells expressing mAChR M1; read-out: Potency (IC50)
Text: Chinese hamster ovary (CHO-K1) cells stably expressing rat (r)M1 were purchased from the American Type Culture Collection and cultured according to their indicated protocol. CHO cells stably expressing human (h)M2, hM3, and hM5 were described previously (Levey, et al., 1991); hM1 and hM4 cDNAs were purchased from Missouri S&T cDNA Resource; rM4 cDNA was provided by T. I. Bonner (National Institutes of Health, Bethesda, Md.). rM2 and rM3 were cloned from a rat brain cDNA library and sequence verified. hM1, rM2, rM3, hM4, and rM4 cDNAs were used to stably transfect CHO-K1 cells purchased from the American Type Culture Collection using Lipofectamine-2000. To make stable rM2, hM2, rM3, hM4, and rM4 cell lines for use in calcium mobilization assays, these cells also were stably transfected with a chimeric G-protein (Gqi5) (provided by B. R. Conklin, University of California, San Francisco) using Lipofectamine 2000. rM1, hM1, rM3, hM3, rM5, and hM5 cells were grown in Ham's F-12 medium containing 10% heat-inactivated fetal bovine serum (FBS), 20 mM HEPES, and 50 μg/mL G418 sulfate. rM2-Gqi5, hM2-Gqi5, and hM4-Gqi5 cells were grown in the same medium also containing 500 μg/mL Hygromycin B. Stable rM4-Gqi5 cells were grown in DMEM containing 10% heat-inactivated FBS, 20 mM HEPES, 400 μg/mL G418 sulfate, and […].
For high throughput measurement of antagonist inhibited increases in intracellular calcium, CHO-K1 cells stably expressing muscarinic receptors were plated in growth medium lacking G418 and hygromycin at 15,000 cells/20 μL/well in Greiner 384-well black-walled, tissue culture (TC)-treated, clear-bottom plates (VWR). Cells were incubated overnight at 37° C. and 5% CO2. The next day, cells were washed using an ELX 405 (BioTek) with four washes (80 μL) of assay buffer then aspirated to 20 μL. Next, 20 μL of 16 μM Fluo-4/acetoxymethyl ester (Invitrogen, Carlsbad, Calif.) prepared as a 2.3 mM stock in DMSO and mixed in a 1:1 ratio with 10% (w/v) Pluronic F-127 and diluted in assay buffer was added to the wells and the cell plates were incubated for 50 min at 37° C. and 5% CO2. Dye was removed by washing with the ELX 405 (four 80 μL washes of assay buffer) then aspirated to 20 μL. Compound master plates were formatted in an 11 point CRC format (1:3 dilutions) in 100% DMSO with a starting concentration of 10 mM using the BRAVO liquid handler (Agilent). Test compound CRCs were then transferred to daughter plates (240 nL) using the Echo acoustic plate reformatter (Labcyte, Sunnyvale, Calif.) and then diluted into assay buffer (40 μL) to a 2× stock using a Thermo Fisher Combi (Thermo Fisher Scientific, Waltham, Mass.).
Calcium flux was measured using the Functional Drug Screening System (FDSS) 6000 (Hamamatsu Corporation, Tokyo, Japan) as an increase in the fluorescent static ratio. Compounds were applied to cells (20 μL, 2×) using the automated system of the FDSS 6000 at 4 s into the 300 s protocol and the data were collected at 1 Hz. At 144 s into the 300 s protocol, 10 μL of an EC20 concentration of the muscarinic receptor agonist acetylcholine was added (5×), followed by the addition of 12 μL an EC80 concentration of acetylcholine at the 230 s time point (5×). Agonist activity was analyzed as a concentration-dependent increase in calcium mobilization upon compound addition. Positive allosteric modulator activity was analyzed as a concentration-dependent increase in the EC20 acetylcholine response. Antagonist activity was analyzed as a concentration-dependent decrease in the EC80 acetylcholine response. Concentration-response curves were generated using a four-parameter logistical equation in XLfit curve fitting software (IDBS, Bridgewater, N.J.) for Excel (Microsoft, Redmond, Wash.) or Prism (GraphPad Software, Inc., San Diego, Calif.).
The calcium mobilization assay was used to determine “potency”.

Row | IC50 | SMILES
1 | 1200 nM | Cc1cc2c(S(=O)(=O)N3CC(C(=O)N4CC5CN(c6ccncc6)CC5C4)C3)cccc2cn1 (stereo not shown) [B60]
2 | 2000 nM | O=C(C1CN(S(=O)(=O)c2cccc3ncccc23)C1)N1CCN(c2ccncc2)CC1 [B26]
3 | 2900 nM | O=C(C1CN(S(=O)(=O)c2cccc3c(Cl)nc(Cl)cc23)C1)N1CCN(c2ccncc2)CC1 [B30]
4 | 37 nM | O=C(C1CN(S(=O)(=O)c2cccc3cnccc23)C1)N1CCN(c2ccncc2)CC1 [B1]
5 | 910 nM | Cc1cc2c(S(=O)(=O)N3CC(C(=O)N4CCN(c5ccncc5)CC4)C3)cccc2cn1 [B22]

The remaining lines, values behind:

Row | SMILES | IC50
6 | O=C(C1CN(S(=O)(=O)c2ccc3c(c2)OCO3)C1)N1CCN(c2ccncc2)CC1 [B9] | 340 nM
7 | O=C(C1CN(S(=O)(=O)c2cccc(Cl)c2)C1)N1CCN(c2ccncc2)CC1 [B36] | > 10000 nM
8 | O=C(C1CN(S(=O)(=O)c2cccc(Cl)c2Cl)C1)N1CC2CN(c3ccncc3)CC2C1 (stereo not shown) [B58] | 660 nM
9 | O=C(C1CN(S(=O)(=O)c2ccc3ncccc3c2)C1)N1CCN(c2ccncc2)CC1 [B15] | 550 nM
10 | O=C(C1CN(S(=O)(=O)c2cccc(Cl)c2F)C1)N1CCN(c2ccncc2)CC1 [B34] | > 10000 nM
11 | Cc1cc(S(=O)(=O)N2CC(C(=O)N3CCN(c4ccncc4)CC3)C2)cnc1Cl [B7] | 200 nM
12 | O=C(C1CN(S(=O)(=O)c2cccc3nsnc23)C1)N1CC2CN(c3ccncc3)CC2C1 (stereo not shown) [B53] | 2500 nM
13 | O=C(C1CN(S(=O)(=O)c2cccc3cnccc23)C1)N1CCN(c2ccncn2)CC1 [B20] | 790 nM
